These are literature values, as cited in US11180463B2, “Thiazole inner salt compounds, and preparation methods and uses thereof” (Institute of Pharmacology and Toxicology Academy of …, priority 2013, dated 2021).

The series relates to long-term diabetic rats. The note with it: rat, in vivo; cited from earlier work.

As for `Cc1csc[n+]1CC(=O)O.[Na+]` [Formula A, 3-carboxymethyl-4metyl-bromothiazolium sodium salt, reference compound], the total peripheral resistance entry is “reduced”.
